# Measured values taken from PMC9736855, “Discovery of 3-Amino-1H-pyrazole-Based Kinase Inhibitors to Illuminate the Understudied PCTAIRE Family” (International Journal of Molecular Sciences, 2022).
# Amino acid sequences for entries named in this document (tags omitted). A change or cut given only in a name is not applied to a line headed by its entry. Residues count along the entry.
# UniProt Q9P289, 1-300: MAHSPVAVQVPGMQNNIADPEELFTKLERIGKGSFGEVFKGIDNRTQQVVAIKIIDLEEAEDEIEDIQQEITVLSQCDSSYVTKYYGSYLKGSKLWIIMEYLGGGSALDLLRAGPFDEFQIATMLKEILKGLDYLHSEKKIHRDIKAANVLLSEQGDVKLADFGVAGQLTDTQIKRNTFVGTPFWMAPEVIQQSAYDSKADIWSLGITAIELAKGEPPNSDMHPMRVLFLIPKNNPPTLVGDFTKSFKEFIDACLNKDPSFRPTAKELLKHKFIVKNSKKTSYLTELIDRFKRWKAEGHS
# UniProt Q2M2I8, 27-365: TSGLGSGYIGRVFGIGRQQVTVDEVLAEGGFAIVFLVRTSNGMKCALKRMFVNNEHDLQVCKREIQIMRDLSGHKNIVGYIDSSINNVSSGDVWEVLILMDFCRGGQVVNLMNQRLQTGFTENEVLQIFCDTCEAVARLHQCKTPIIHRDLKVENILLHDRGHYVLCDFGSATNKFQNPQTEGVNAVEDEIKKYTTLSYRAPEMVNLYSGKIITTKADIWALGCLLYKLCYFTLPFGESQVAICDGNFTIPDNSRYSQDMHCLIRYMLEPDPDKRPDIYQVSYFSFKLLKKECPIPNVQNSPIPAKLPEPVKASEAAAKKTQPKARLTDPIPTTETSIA
# UniProt Q13873, 27-1038: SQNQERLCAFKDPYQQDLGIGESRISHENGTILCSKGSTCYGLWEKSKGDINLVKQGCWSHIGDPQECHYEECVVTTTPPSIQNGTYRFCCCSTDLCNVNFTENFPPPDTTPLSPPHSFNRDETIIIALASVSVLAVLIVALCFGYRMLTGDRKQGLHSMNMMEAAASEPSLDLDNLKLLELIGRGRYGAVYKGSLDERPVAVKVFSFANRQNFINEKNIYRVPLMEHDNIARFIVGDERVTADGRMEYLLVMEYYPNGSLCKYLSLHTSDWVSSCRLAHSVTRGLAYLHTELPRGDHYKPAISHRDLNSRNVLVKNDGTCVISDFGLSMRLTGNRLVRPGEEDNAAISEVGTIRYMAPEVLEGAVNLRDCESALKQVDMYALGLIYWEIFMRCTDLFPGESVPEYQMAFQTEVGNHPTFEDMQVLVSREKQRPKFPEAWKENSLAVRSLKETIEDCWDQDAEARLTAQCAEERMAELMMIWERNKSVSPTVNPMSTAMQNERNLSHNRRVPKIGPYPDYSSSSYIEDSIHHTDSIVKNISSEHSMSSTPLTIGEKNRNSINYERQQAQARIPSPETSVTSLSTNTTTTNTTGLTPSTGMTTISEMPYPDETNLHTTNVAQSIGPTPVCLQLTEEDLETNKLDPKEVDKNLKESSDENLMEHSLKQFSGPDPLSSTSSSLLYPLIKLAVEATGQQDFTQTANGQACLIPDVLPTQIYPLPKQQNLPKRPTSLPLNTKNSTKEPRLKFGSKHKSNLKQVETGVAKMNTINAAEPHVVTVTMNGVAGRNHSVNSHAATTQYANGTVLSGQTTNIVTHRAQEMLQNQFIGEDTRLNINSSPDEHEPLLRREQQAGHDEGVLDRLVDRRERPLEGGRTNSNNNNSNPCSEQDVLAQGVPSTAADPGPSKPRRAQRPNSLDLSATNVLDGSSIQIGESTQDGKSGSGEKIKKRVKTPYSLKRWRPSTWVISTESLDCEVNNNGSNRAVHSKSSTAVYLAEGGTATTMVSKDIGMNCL
# UniProt Q13557, 11-309: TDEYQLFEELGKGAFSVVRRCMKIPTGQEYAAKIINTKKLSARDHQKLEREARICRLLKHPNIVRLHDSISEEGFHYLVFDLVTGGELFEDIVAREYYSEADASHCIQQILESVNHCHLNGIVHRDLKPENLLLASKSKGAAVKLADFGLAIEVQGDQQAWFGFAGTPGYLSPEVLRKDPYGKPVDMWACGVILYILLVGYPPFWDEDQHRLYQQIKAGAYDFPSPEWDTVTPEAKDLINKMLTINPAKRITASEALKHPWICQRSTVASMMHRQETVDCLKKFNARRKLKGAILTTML
# UniProt O43293, 9-289: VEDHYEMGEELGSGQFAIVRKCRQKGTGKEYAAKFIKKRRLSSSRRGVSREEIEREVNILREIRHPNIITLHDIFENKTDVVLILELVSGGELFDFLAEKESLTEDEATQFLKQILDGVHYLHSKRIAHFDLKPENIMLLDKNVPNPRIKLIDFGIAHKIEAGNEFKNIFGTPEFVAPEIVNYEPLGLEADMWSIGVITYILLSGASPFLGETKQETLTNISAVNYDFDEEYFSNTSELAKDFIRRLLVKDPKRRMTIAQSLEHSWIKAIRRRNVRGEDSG
# UniProt Q09013: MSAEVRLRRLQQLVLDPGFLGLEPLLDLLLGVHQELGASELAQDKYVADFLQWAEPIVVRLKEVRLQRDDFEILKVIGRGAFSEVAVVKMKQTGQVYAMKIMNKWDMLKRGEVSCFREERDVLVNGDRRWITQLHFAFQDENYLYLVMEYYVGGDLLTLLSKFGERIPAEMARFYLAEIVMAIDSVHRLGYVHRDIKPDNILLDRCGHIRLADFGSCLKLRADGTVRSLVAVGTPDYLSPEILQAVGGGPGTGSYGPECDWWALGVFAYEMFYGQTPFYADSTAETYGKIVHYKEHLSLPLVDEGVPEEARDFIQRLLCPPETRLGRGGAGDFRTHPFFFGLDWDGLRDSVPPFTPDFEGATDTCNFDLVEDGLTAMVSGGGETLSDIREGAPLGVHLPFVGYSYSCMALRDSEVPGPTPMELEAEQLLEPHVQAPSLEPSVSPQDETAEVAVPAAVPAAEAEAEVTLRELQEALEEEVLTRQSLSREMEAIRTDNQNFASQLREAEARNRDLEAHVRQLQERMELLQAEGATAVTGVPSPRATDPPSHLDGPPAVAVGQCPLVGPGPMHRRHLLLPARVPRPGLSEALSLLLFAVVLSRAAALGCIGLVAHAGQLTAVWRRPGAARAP
# UniProt P52564, 53-314: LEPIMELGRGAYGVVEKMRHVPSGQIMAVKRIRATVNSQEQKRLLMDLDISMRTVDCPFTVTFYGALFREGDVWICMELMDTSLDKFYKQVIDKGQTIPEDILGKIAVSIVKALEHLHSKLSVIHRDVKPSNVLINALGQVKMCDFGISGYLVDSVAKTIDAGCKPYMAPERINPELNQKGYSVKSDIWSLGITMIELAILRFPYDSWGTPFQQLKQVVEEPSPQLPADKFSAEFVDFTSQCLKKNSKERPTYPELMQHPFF
# UniProt Q99683, 659-951: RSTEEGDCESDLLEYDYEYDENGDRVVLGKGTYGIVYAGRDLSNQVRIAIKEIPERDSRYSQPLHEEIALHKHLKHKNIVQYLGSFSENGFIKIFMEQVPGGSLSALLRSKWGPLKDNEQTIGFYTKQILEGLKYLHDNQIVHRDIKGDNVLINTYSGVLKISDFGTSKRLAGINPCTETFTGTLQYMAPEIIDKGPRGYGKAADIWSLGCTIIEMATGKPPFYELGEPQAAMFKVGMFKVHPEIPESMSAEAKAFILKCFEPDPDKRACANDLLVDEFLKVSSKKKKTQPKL
# UniProt Q16539, whole entry: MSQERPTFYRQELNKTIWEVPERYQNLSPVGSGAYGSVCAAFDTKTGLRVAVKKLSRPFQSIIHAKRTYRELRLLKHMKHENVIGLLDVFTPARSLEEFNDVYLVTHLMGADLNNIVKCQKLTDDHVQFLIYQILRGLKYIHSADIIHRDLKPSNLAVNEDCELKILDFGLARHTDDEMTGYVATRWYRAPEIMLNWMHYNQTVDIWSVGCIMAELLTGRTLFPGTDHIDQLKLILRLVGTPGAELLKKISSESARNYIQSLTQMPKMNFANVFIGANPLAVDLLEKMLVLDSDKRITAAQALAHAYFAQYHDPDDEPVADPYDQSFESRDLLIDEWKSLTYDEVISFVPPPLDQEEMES
# UniProt P45983, 1-364: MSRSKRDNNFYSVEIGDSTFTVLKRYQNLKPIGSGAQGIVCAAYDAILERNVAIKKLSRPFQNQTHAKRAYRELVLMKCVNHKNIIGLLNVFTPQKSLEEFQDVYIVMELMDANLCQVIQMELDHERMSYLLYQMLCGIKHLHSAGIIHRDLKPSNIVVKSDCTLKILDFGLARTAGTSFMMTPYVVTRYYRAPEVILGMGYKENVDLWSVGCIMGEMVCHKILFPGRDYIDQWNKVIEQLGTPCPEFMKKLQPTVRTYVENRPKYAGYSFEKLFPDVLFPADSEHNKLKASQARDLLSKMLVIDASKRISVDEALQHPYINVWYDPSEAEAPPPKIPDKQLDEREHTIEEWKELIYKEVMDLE
# UniProt P27448: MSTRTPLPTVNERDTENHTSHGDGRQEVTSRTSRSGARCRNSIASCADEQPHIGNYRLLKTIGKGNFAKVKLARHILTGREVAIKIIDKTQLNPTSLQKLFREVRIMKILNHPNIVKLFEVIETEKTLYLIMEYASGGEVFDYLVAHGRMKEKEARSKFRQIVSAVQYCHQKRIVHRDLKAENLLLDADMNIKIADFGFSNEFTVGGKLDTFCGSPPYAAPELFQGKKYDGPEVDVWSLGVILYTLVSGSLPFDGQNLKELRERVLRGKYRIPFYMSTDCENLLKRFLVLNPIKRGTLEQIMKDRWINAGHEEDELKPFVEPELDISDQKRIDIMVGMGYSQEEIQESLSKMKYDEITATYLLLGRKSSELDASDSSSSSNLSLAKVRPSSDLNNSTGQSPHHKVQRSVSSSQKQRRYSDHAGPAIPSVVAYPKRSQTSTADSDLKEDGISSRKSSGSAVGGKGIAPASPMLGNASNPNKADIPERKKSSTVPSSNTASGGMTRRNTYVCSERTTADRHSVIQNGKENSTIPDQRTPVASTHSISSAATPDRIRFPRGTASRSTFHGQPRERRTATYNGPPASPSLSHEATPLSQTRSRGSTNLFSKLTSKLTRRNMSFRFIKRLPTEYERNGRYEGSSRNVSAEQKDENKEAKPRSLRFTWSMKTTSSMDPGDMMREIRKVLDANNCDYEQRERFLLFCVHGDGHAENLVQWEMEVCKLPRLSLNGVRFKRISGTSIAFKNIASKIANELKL
# UniProt Q8TDX7: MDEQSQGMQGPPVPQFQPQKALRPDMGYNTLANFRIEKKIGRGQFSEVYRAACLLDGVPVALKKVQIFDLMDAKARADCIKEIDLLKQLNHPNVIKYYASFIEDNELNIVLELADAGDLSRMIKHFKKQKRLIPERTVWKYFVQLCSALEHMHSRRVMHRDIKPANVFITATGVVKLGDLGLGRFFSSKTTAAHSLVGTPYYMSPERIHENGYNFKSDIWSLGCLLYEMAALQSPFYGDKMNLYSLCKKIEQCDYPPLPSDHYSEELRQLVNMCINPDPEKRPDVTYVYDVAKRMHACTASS
# UniProt Q96SB4, whole entry: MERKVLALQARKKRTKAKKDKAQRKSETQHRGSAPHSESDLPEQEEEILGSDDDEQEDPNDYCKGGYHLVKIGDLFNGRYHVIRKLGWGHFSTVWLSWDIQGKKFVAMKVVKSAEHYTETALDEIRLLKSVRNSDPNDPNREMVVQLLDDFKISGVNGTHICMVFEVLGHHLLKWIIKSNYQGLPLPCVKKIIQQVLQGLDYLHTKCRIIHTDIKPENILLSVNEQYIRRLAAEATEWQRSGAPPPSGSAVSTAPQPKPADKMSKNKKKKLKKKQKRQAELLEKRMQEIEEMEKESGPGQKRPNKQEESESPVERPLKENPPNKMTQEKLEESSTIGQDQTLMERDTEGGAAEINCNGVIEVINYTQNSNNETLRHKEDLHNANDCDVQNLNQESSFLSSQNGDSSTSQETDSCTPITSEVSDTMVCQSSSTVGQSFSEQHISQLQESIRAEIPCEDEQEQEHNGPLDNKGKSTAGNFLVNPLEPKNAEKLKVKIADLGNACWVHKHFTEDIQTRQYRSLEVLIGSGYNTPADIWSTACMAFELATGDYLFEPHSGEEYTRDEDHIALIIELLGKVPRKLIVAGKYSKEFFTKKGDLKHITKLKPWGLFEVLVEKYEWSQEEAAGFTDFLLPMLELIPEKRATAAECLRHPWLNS
# UniProt Q6PHR2, 1-279: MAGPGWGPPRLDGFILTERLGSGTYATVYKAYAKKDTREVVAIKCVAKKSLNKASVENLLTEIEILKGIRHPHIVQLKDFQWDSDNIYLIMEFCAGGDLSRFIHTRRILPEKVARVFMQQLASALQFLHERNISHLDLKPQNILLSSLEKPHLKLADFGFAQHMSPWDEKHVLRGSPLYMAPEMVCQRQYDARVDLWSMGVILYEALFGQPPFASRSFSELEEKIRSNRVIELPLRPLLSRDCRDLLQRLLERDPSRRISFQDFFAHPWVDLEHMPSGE
# UniProt P68400, 1-337: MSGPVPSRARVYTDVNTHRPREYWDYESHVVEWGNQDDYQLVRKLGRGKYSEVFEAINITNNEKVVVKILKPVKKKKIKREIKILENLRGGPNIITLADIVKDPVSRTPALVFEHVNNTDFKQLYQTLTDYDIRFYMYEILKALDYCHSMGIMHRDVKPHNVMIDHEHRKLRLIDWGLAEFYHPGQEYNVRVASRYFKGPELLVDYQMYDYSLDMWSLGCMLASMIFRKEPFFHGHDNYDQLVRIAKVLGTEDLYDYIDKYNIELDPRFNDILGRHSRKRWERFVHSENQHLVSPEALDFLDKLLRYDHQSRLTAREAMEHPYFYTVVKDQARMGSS
# Legend:
# AKT3 = target: T1, AKT3 (Homo sapiens, UniProt Q9Y243); assay: DSF; type: binding
# T1 construct: purchased in-house DSF panel (SGC Frankfurt)
# [1] = system: in-house panel of 89–105 kinases; assay: DSF selectivity screen; type: binding; conditions: number of kinases of the DSF panel
# Text: To investigate the selectivity profile of the different series, a differential scanning fluorimetry (DSF) assay was used. This assay offers a rapid and sensitive screening method that determines the denaturation temperature of a protein in absence and presence of a compound. This assay format measures the fluorescence of a dye, which depends on the folding state of the protein. The difference between the melting temperature (ΔTm) in the absence and presence of the compound represents the binding strength to the protein. We used an in-house panel of 89–105 kinases to screen all synthesized inhibitors (Tables S1–S3).
# (§1) Measurements were performed in duplicates.
# MST3 = target: T2, MST3 (Homo sapiens, UniProt Q9Y6E0); assay: DSF; type: binding
# T2 construct: purchased in-house DSF panel (SGC Frankfurt)
# MST4 = target: T3, MST4 (Homo sapiens, UniProt Q9P289); assay: DSF; type: binding
# T3 construct: purchased in-house DSF panel (SGC Frankfurt)
# AAK1 = target: T4, AAK1 (Homo sapiens, UniProt Q2M2I8); assay: DSF; type: binding
# T4 construct: purchased in-house DSF panel (SGC Frankfurt)
# Description: as §1
# BMPR2 = target: T5, BMPR2 (Homo sapiens, UniProt Q13873); assay: DSF; type: binding
# T5 construct: purchased in-house DSF panel (SGC Frankfurt)
# Description: as §1
# CAMK2B = target: T6, CAMK2B (Homo sapiens, UniProt Q13554); assay: DSF; type: binding
# T6 construct: purchased in-house DSF panel (SGC Frankfurt)
# Description: as §1
# CAMK2D = target: T7, CAMK2D (Homo sapiens, UniProt Q13557); assay: DSF; type: binding;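 note: compound tested at 10 µM with 2 µM protein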
# T7 construct: purchased in-house DSF panel (SGC Frankfurt)
# Description: as §1
# CK2A2 = target: T8, CK2A2 (Homo sapiens, UniProt P19784); assay: DSF; type: binding;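 note: compound tested at 10 µM with 2 µM protein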
# T8 construct: purchased in-house DSF panel (SGC Frankfurt)
# Description: as §1
# CLK3 = target: T9, CLK3 (Homo sapiens, UniProt P49761); assay: DSF; type: binding
# T9 construct: purchased in-house DSF panel (SGC Frankfurt)
# Description: as §1
# CSNK1D = target: T10, CSNK1D (Homo sapiens, UniProt P48730); assay: DSF; type: binding;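 note: compound tested at 10 µM with 2 µM protein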
# T10 construct: purchased in-house DSF panel (SGC Frankfurt)
# Description: as §1
# DAPK3 = target: T11, DAPK3 (Homo sapiens, UniProt O43293); assay: DSF; type: binding
# T11 construct: purchased in-house DSF panel (SGC Frankfurt)
# Description: as §1
# DMPK1 = target: T12, DMPK1 (Homo sapiens, UniProt Q09013); assay: DSF; type: binding
# T12 construct: purchased in-house DSF panel (SGC Frankfurt)
# Description: as §1
# EPHA2 = target: T13, EPHA2 (Homo sapiens, UniProt P29317); assay: DSF; type: binding
# T13 construct: purchased in-house DSF panel (SGC Frankfurt)
# Description: as §1
# GPRK5 = target: T14, GPRK5 (Homo sapiens, UniProt P34947); assay: DSF; type: binding
# T14 construct: purchased in-house DSF panel (SGC Frankfurt)
# Description: as §1
# GSG2 = target: T15, GSG2 (Homo sapiens, UniProt Q8TF76); assay: DSF; type: binding
# T15 construct: purchased in-house DSF panel (SGC Frankfurt)
# Description: as §1
# MAP2K1 = target: T16, MAP2K1 (Homo sapiens, UniProt Q02750); assay: DSF; type: binding
# T16 construct: purchased in-house DSF panel (SGC Frankfurt)
# Description: as §1
# MAP2K4 = target: T17, MAP2K4 (Homo sapiens, UniProt P45985); assay: DSF; type: binding
# T17 construct: purchased in-house DSF panel (SGC Frankfurt)
# Description: as §1
# MAP2K6 = target: T18, MAP2K6 (Homo sapiens, UniProt P52564); assay: DSF; type: binding
# T18 construct: purchased in-house DSF panel (SGC Frankfurt)
# Description: as §1
# MAP3K5 = target: T19, MAP3K5 (Homo sapiens, UniProt Q99683); assay: DSF; type: binding
# T19 construct: purchased in-house DSF panel (SGC Frankfurt)
# Description: as §1
# MAPK10 = target: T20, MAPK10 (Homo sapiens, UniProt P53779); assay: DSF; type: binding;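 note: compound tested at 10 µM with 2 µM protein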
# T20 construct: purchased in-house DSF panel (SGC Frankfurt)
# Description: as §1
# MAPK14 = target: T21, MAPK14 (Homo sapiens, UniProt Q16539); assay: DSF; type: binding
# T21 construct: purchased in-house DSF panel (SGC Frankfurt)
# Description: as §1
# MAPK15 = target: T22, MAPK15 (Homo sapiens, UniProt Q8TD08); assay: DSF; type: binding
# T22 construct: purchased in-house DSF panel (SGC Frankfurt)
# Description: as §1
# MAPK8 = target: T23, MAPK8 (Homo sapiens, UniProt P45983); assay: DSF; type: binding
# T23 construct: purchased in-house DSF panel (SGC Frankfurt)
# Description: as §1
# MAPK9 = target: T24, MAPK9 (Homo sapiens, UniProt P45984); assay: DSF; type: binding;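 note: compound tested at 10 µM with 2 µM protein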
# T24 construct: purchased in-house DSF panel (SGC Frankfurt)
# Description: as §1
# MARK3 = target: T25, MARK3 (Homo sapiens, UniProt P27448); assay: DSF; type: binding
# T25 construct: purchased in-house DSF panel (SGC Frankfurt)
# Description: as §1
# NEK1 = target: T26, NEK1 (Homo sapiens, UniProt Q96PY6); assay: DSF; type: binding
# T26 construct: purchased in-house DSF panel (SGC Frankfurt)
# Description: as §1
# NEK7 = target: T27, NEK7 (Homo sapiens, UniProt Q8TDX7); assay: DSF; type: binding
# T27 construct: purchased in-house DSF panel (SGC Frankfurt)
# Description: as §1
# PIM1 = target: T28, PIM1 (Homo sapiens, UniProt P11309); assay: DSF; type: binding
# T28 construct: purchased in-house DSF panel (SGC Frankfurt)
# Description: as §1
# PIM3 = target: T29, PIM3 (Homo sapiens, UniProt Q86V86); assay: DSF; type: binding;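 note: compound tested at 10 µM with 2 µM protein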
# T29 construct: purchased in-house DSF panel (SGC Frankfurt)
# Description: as §1
# RPS6KA1 = assay: DSF; type: binding;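 note: compound tested at 10 µM with 2 µM protein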
# Description: as §1
# RPS6KA5 = assay: DSF; type: binding
# Description: as §1
# RPS6KA6 = assay: DSF; type: binding
# Description: as §1
# SPRK1 = target: T30, SPRK1 (Homo sapiens, UniProt Q96SB4); assay: DSF; type: binding
# T30 construct: purchased in-house DSF panel (SGC Frankfurt)
# Description: as §1
# SRC = target: T31, SRC (Homo sapiens, UniProt P12931); assay: DSF; type: binding;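 note: compound tested at 10 µM with 2 µM protein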
# T31 construct: purchased in-house DSF panel (SGC Frankfurt)
# Description: as §1
# TAF1 = assay: DSF; type: binding;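 note: compound tested at 10 µM with 2 µM protein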
# Description: as §1
# UKL3 = target: T32, UKL3 (Homo sapiens, UniProt Q6PHR2); assay: DSF; type: binding;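 note: compound tested at 10 µM with 2 µM protein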
# T32 construct: purchased in-house DSF panel (SGC Frankfurt)
# Description: as §1
# CSNK2A1 = CSNK2A1 (Homo sapiens, UniProt P68400)
structure (smiles),measurement,setting,value
"N#CCc1ccc(Nc2nccc(Nc3cc(C4CC4)[nH]n3)n2)cc1 [compound 1, reference compound]",ΔTm AKT3,AKT3,1.4 °C
same,Kinases with shifts > 5°C,[1],60
"CN[C@@H]1C[C@H]2O[C@@](C)([C@@H]1OC)n1c3ccccc3c3c4c(c5c6ccccc6n2c5c31)C(=O)NC4 [staurosporine, reference compound]",ΔTm AKT3,AKT3,6.6 °C
same,ΔTm MST3,MST3,7.3 °C
same,ΔTm MST4,MST4,6.1 °C
same,ΔTm AAK1,AAK1,15.6 °C
same,ΔTm BMPR2,BMPR2,2.6 °C
same,ΔTm CAMK2B,CAMK2B,13.3 °C
same,ΔTm CAMK2D,CAMK2D,16.2 °C
same,ΔTm CK2A2,CK2A2,5.6 °C
same,ΔTm CLK3,CLK3,5.6 °C
same,ΔTm CSNK1D,CSNK1D,1.8 °C
same,ΔTm DAPK3,DAPK3,15.8 °C
same,ΔTm DMPK1,DMPK1,8.7 °C
same,ΔTm EPHA2,EPHA2,8.3 °C
same,ΔTm GPRK5,GPRK5,7.7 °C
same,ΔTm GSG2,GSG2,7.2 °C
same,ΔTm MAP2K1,MAP2K1,1.3 °C
same,ΔTm MAP2K4,MAP2K4,12.0 °C
same,ΔTm MAP2K6,MAP2K6,12.3 °C
same,ΔTm MAP3K5,MAP3K5,18.5 °C
same,ΔTm MAPK10,MAPK10,7.4 °C
same,ΔTm MAPK14,MAPK14,0.3 °C
same,ΔTm MAPK15,MAPK15,14.7 °C
same,ΔTm MAPK8,MAPK8,7.8 °C
same,ΔTm MAPK9,MAPK9,3.7 °C
same,ΔTm MARK3,MARK3,19.0 °C
same,ΔTm NEK1,NEK1,-0.6 °C
same,ΔTm NEK7,NEK7,1.0 °C
same,ΔTm PIM1,PIM1,12.5 °C
same,ΔTm PIM3,PIM3,19.7 °C
same,ΔTm RPS6KA1,RPS6KA1,3.9 °C
same,ΔTm RPS6KA5,RPS6KA5,13.7 °C
same,ΔTm RPS6KA6,RPS6KA6,-0.5 °C
same,ΔTm SPRK1,SPRK1,6.8 °C
same,ΔTm SRC,SRC,5.9 °C
same,ΔTm TAF1,TAF1,0.2 °C
same,ΔTm UKL3,UKL3,19.6 °C
same,ΔTm CSNK2A1,CSNK2A1,2.1 °C
